Data from ChEMBL document CHEMBL1137244, “Ureas with histamine H3-antagonist receptor activity--a new scaffold discovered by lead-hopping from cinnamic acid amides” (Bioorg Med Chem Lett, 2006).

Amino acid sequences for entries named in this document (tags omitted). A change or cut given only in a name is not applied to a line headed by its entry.
UniProt Q12809: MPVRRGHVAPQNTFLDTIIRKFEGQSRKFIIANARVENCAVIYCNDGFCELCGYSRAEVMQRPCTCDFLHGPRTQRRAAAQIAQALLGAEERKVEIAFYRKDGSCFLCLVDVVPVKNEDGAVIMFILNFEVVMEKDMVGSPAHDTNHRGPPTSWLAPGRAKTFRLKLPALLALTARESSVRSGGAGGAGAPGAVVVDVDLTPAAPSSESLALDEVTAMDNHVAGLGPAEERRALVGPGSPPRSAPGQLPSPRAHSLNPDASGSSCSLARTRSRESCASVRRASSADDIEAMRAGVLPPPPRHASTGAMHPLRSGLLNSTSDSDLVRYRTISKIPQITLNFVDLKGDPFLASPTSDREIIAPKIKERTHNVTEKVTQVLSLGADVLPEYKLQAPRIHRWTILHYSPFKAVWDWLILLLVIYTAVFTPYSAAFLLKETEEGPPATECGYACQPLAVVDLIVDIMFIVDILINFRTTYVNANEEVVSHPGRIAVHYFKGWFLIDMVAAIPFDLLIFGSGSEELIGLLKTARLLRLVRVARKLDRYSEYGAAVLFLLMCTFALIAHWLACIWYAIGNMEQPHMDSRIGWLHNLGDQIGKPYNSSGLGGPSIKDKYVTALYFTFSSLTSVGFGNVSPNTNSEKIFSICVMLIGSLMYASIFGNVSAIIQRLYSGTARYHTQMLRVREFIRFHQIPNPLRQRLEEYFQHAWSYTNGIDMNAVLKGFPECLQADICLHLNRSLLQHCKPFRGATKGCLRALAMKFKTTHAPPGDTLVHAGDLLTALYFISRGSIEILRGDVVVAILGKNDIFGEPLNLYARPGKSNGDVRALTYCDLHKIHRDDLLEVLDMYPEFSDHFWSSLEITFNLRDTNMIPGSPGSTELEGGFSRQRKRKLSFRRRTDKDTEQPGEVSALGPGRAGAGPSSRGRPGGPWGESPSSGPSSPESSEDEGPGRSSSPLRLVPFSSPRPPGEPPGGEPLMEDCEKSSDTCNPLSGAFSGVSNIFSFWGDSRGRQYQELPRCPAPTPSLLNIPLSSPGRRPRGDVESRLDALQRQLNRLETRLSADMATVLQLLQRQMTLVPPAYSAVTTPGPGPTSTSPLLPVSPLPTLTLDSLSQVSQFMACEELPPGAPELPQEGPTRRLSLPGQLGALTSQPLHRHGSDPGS

Molecular target: Voltage-gated inwardly rectifying potassium channel KCNH2 (Homo sapiens, UniProt Q12809)

## CC(C)COCC(CN(Cc1ccccc1)c1ccccc1)N1CCCC1 (stereo unspecified) [BEPRIDIL]
  Ki: 0.444 µM
